The source of these data is ChEMBL document CHEMBL1135277, “Beta-carbolines as specific inhibitors of cyclin-dependent kinases” (Bioorg Med Chem Lett, 2002).

By UniProt entry, the sequences of proteins in these tests, tags left out.
UniProt Q00535, whole entry: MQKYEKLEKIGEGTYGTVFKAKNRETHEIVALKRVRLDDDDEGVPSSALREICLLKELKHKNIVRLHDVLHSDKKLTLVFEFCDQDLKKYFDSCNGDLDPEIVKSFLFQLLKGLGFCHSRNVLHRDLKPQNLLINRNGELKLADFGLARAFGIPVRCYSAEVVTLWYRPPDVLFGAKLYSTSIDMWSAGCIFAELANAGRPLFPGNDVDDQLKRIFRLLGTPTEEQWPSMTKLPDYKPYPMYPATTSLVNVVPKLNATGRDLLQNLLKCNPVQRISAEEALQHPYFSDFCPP

The target of this experiment is Cyclin-dependent kinase 5/CDK5 activator 1 (Homo sapiens, UniProt Q00535). The experiment is described as follows: Inhibition of Cyclin-dependent kinase 5-p35nck5a. It counts as protein-complex assay.

Broadly, the IC50 is the concentration that inhibits the measured activity by half. Consider `COc1ccc2c(c1)[nH]c1c(C)nccc12` [HARMINE], for which the concentration for half-maximal inhibition (IC50) turned out to be 21 µM.
